# Test results published in patent US11560362B2, “Dibutylfluorene derivative and application thereof as photoinitiator” (HUI ZHOU HUAHONG NEW MATERIAL CO., LTD., priority 2017, dated 2023).
# How the values were obtained:
# [1] = Stability analysis: mobility of initiator compound from cured print into analog solutions, by HPLC; type: physicochemical; conditions: 40° C. for 10 days, calculated for 1 kg of food per 600 cm^2 printing area
# [2] = Solubility of solid photoinitiator in liquid polymerized monomer (HDDA or TPGDA); conditions: dissolved at 50-60° C., stored at room temperature
substance,measurement,setting,value
2-methyl-1-[4-methylthiophenyl]-2-morpholinyl-1-acetone,Mobility,[1]; 3% acetic acid,4000 µg/kg
same,Mobility,[1]; Water,1000 µg/kg
same,Solubility,[2]; Polymerized monomer 1: HDDA,35 % (mass fraction)
same,Solubility,[2]; Polymerized monomer 2: TPGDA,22 % (mass fraction)
